Assay: Selectivity ratio of EC50 for antileishmanial activity against Leishmania donovani MHOM/ET/67/HU3 intracellular amastigotes to IC50 for NMT in Leishmania donovani MHOM/ET/67/HU3 intracellular amastigotes assessed as reduction in protein myristoylation

CN1CCC(N(C)c2nc(N(C)CCC#N)c3ccccc3n2)C1 (stereo unspecified)
selectivity ratio: 5 - 6

Reference: ChEMBL document CHEMBL4610124, “Novel Thienopyrimidine Inhibitors of Leishmania N-Myristoyltransferase with On-Target Activity in Intracellular Amastigotes” (J Med Chem, 2020)
